Protein sequences, listed by entry. Tags and fused reporters are not part of them.
UniProt P31639, whole entry: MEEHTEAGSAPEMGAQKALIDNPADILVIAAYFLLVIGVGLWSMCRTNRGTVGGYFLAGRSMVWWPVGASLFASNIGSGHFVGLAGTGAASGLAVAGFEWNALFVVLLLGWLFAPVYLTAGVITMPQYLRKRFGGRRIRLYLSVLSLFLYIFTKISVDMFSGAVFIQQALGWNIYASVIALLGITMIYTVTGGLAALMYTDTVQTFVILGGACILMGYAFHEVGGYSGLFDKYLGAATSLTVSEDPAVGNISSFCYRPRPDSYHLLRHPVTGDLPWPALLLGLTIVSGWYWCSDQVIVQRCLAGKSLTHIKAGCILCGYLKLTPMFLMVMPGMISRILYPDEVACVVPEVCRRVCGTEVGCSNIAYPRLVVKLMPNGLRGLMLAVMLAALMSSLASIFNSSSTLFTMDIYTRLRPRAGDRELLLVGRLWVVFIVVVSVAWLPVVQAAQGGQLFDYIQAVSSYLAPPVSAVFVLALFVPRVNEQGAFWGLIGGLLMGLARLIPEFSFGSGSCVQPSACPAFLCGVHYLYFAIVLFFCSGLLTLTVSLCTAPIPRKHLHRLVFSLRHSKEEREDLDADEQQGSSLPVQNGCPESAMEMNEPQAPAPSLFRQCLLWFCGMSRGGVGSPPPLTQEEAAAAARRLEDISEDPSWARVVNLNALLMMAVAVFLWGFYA
UniProt P13866, whole entry: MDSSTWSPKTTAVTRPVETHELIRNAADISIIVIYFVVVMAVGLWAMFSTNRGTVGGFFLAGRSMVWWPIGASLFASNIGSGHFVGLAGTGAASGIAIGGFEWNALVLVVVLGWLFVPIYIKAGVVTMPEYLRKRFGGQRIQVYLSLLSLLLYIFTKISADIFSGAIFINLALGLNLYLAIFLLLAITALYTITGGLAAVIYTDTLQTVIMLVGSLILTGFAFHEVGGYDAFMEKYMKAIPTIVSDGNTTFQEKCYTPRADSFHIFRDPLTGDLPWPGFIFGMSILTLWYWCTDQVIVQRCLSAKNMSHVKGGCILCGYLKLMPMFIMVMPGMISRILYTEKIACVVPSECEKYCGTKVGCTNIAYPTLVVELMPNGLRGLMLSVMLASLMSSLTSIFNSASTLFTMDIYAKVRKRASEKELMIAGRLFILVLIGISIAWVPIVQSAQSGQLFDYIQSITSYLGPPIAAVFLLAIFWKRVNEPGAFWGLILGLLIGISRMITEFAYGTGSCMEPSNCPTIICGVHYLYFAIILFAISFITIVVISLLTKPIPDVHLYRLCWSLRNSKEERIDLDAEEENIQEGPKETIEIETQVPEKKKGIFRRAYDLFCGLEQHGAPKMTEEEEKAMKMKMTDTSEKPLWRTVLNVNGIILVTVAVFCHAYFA

In patent US12258367B2, “Glucoside derivative that acts as SGLT1 inhibitor and application thereof” (MEDSHINE DISCOVERY INC., priority 2019, dated 2025):

How the values were obtained:
[1] = biological target: Human-SGLT2 (Homo sapiens, UniProt P31639); test: SGLT2 glucose transport assay ([14C]-methyl α-D-glucopyranoside uptake); conditions: read-out: Human-SGLT2 IC50; cells stably expressing Human-SGLT2, 37° C. for 2 hours
Experimental: The effect of the compound on the glucose transport activity of the SGLT2 transporter was detected by measuring the amount of [^14C]-labeled glucose entering cells highly expressing Human-SGLT2.
The cells stably expressing Human-SGLT2 used in the assay were constructed by Shanghai WuXi AppTec. The SGLT2 cells were plated on a 96-well cell culture plate (Greiner) and cultured at 5% CO2, 37° C. overnight.
• 1) Assay buffer: 10 mM HEPES, 1.2 mM MgCl2, 4.7 mM KCl, 2.2 mM CaCl2 and 120 mM NaCl. • 2) Stop buffer: 10 mM HEPES, 1.2 mM MgCl2, 4.7 mM KCl, 2.2 mM CaCl2, 120 mM NaCl and 1 μM LX4211. • 3) The compound with a starting concentration of 10 μM was serially diluted 5-fold with 100% DMSO to 8 concentrations. • 4) 6 μM [^14C]Methyl a-D-glucopyranoside was prepared with the assay buffer. • 5) The cells were treated with 49 μL of the assay buffer, 1 μL of the serially diluted compound, and 50 μL of the 6 μM [^14C] isotope-labeled sugar solution at 37° C. for 2 hours. • 6) The liquid in the well was aspirated and the cells were rinsed three times with the stop buffer. • 7) The cells were lysed with 50 μL of 10% sodium hydroxide solution, the cell lysate was pipetted into a scintillation tube, and 2 mL of scintillation fluid was added. • 8) An isotope detector (Tricarb) was used to read. • 9) The data were processed by GraphPad Prism 5.0 software with the calculation formula: log(inhibitor) vs. response—Variable slope to give the IC50 value of the test compound.

[2] = biological target: Human-SGLT1 (Homo sapiens, UniProt P13866); test: SGLT1 glucose transport assay ([14C]-methyl α-D-glucopyranoside uptake); conditions: read-out: Human-SGLT1 IC50; cells stably expressing Human-SGLT1, 37° C. for 2 hours

Structure (SMILES)	IC50 [1] [nM]	IC50 [2] [nM]
CS[C@H]1O[C@@H](c2cc(Cc3ccc(OC4CCN(C(=O)C[C@H](N)Cc5cc(F)c(F)cc5F)CC4)cc3)c(Cl)cc2C)[C@H](O)[C@@H](O)[C@@H]1O	1.5	21
CCc1ccc([C@@H]2O[C@H](SC)[C@@H](O)[C@H](O)[C@H]2O)cc1Cc1ccc(OC2CCN(C(=O)C[C@H](N)Cc3cc(F)c(F)cc3F)C2)cc1 (single isomer, unassigned) [WXD002]	2.9	0.5
CCc1ccc([C@@H]2O[C@H](SC)[C@@H](O)[C@H](O)[C@H]2O)cc1Cc1ccc(OC2CCN(C(=O)C[C@H](N)Cc3cc(F)c(F)cc3F)C2)cc1 (single isomer, unassigned) [WXD001]	6.5	0.7
CS[C@H]1O[C@@H](c2cc(C)c(Cl)c(Cc3ccc(OC4CCN(C(=O)C[C@H](N)Cc5cc(F)c(F)cc5F)CC4)cc3)c2)[C@H](O)[C@@H](O)[C@@H]1O	3.3	50
